The values that follow come from patent US9925263B2, “Liquid pharmaceutical formulations for injection comprising procaine and uses thereof” (EAGLE BIOLOGICS, INC., priority 2013, dated 2018).

One data set deals with biosimilar RITUXAN®. Description: Viscosity of aqueous solutions of biosimilar RITUXAN® with viscosity-lowering agents.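 Further: absolute viscosity of aqueous antibody solutions determined by microfluidic viscometry (mVROC chip, 50 micron channel) at several flow rates after 5 min equilibration, mean of at least three readings.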 Particulars: 25° C.
In another data set the test system is biosimilar AVASTIN®. Briefly: Viscosity of aqueous solutions of biosimilar AVASTIN® with viscosity-lowering agents. Type of data set: physicochemical. As for the experimental part:
(§1) (unless otherwise indicated).
The protein was formulated to contain either 0.25 M phosphate buffer or 0.25 M CSAL.
(§2) Subsequently, the appropriate amount of viscosity-lowering agent was added to result in a final viscosity-lowering agent concentration of 0.15-0.35 M upon reconstitution.
The viscosity-lowering agent(s) were added in an amount sufficient to give concentration upon reconstitution as specified below. In cases of combinations of agents, the concentration of each component is 0.15 M. The protein solutions were then freeze-dried.

The next data set has as its system HERCEPTIN®. Briefly: Viscosity of aqueous solutions of HERCEPTIN® with viscosity-lowering agents. Type of data set: physicochemical. Particulars: 236 mg/mL HERCEPTIN; […] agent; 25° C.
The test system of the next data set is VECTIBIX®. Description: Viscosity of aqueous solutions of VECTIBIX® with viscosity-lowering agents. The class given is physicochemical. As to conditions: 0.25M agent, 25° C., pH 7.0.
Description: as §1

The test system of data set [1] is REMICADE®. Description: Syringe extrusion force of concentrated […]® solutions (Instron). The class given is physicochemical. Particulars: 27, 29, 31 gauge needles, REMICADE 220-230 mg/mL, 0.25M. As for the experimental part: (§3) Following reconstitution, the viscosity of each solution was measured using the microfluidic viscometer as described in previous examples. The solutions were then back-loaded into 1 mL BD insulin syringes with 27, 29, or 31 gauge fixed needles. The force required to extrude the concentrated […]® solutions was then measured using an Instron at a rate of displacement equivalent to a fluid flow rate of 3 mL/min. The expelled solution was collected from the syringe and analyzed by size-exclusion chromatography.

The next data set has as its system branded ERBITUX®. Description: Viscosity of aqueous solutions of branded ERBITUX®. The class given is physicochemical. Particulars: 224 ± 4 mg/mL mAb; phosphate buffer or 0.25M BSAA; 25° C., pH 7.0.
Description: as §1

For a further data set, the system named is branded AVASTIN®. Description: Viscosity of aqueous solutions of branded AVASTIN®. The class given is physicochemical. As to conditions: 205 ± 5 mg/mL mAb; phosphate buffer or 0.25M CSAL; 25° C., pH 7.0. As for the experimental part:
as §1, §2

Data set [2] concerns REMICADE®. Description: Monomer content of […]® solutions by size exclusion chromatography. Particulars: pre-syringe; REMICADE 220-230 mg/mL (per agent), 0.25M agent. The class given is physicochemical. Here is the method:
Biophysical properties of solutions of […]® formulated with 0.25 M CSAA were assessed over 90 days. Samples of […]® formulated with 0.25 M CSAA were prepared as described in Example 1 above.
as §3
(In gel filtration, larger molecules generally elute earlier.)

Another data set has as its system ARZERRA®. Description: Viscosity of aqueous solutions of ARZERRA® with viscosity-lowering agents. Type of data set: physicochemical. Particulars: 0.25M agent, 25° C., pH 7.0.
Description: as §1

Like-named read-outs stand apart in the source and are kept apart here.

Turning to CSA-piperazine, the Viscosity in the data set on biosimilar RITUXAN® (191 mg/mL mAb, […] agent) is reported as 57.5 ± 0.4 cP; in the data set with biosimilar AVASTIN® (212 mg/mL mAb, […] agent, pH 7.0, 25° C., microfluidic), 64.5 ± 13.1 cP; in the data set with HERCEPTIN®, 50.3 ± 0.6 cP.
For “sodium phosphate buffer [PB, reference compound]”, the Viscosity in the data set with biosimilar RITUXAN® (199 mg/mL mAb, 0.25M) was found to be 251 ± 1 cP; with biosimilar RITUXAN® (215 mg/mL mAb, 0.25M) it was 636 ± 32 cP; in the data set on biosimilar RITUXAN® (240 mg/mL mAb, 0.25M), 1270 ± 153 cP; with biosimilar RITUXAN® (202 ± 2 mg/mL RITUXAN, 0.25M agent, pH 7.0), 251 ± 1; in the data set on ENBREL® (212 ± 7 mg/mL ENBREL) it was 316 ± 11; with ENBREL® (250 ± 3 mg/mL ENBREL), 439 ± 11. The Viscosity in the data set on ENBREL® (271 ± 0 mg/mL ENBREL) is 1120 ± 26; in the data set on VECTIBIX® (233 ± 4 mg/mL VECTIBIX), 38.7 ± 1.8 cP; in the data set on VECTIBIX® (252 ± 3 mg/mL VECTIBIX), 80.3 ± 3.3 cP; in the data set on VECTIBIX® (291 ± 3 mg/mL VECTIBIX), 328 ± 12 cP; in the data set on ARZERRA® (245 ± 4 mg/mL ARZERRA), 120 ± 4 cP; with ARZERRA® (274 ± 10 mg/mL ARZERRA), 349 ± 2 cP. For the same compound, the “Ability to be expelled through the syringe” value in the data set on REMICADE® [1] (listed as Phosphate Buffer) is on record as “could not be”; in the data set on REMICADE® [1] (listed as phosphate buffer), “could not be expelled”. The “Branded ERBITUX ® viscosity” value with branded ERBITUX® is on record as 556 ± 20 cP. Moreover, the “Viscosity, Branded AVASTIN ®” value in the data set with branded AVASTIN® turned out to be 154 ± 4 cP. The “% Monomer” value in the data set with REMICADE® [2] is on record as 98.8 ± 0.0%.
As to Creatinine Thiamine HCl, the Viscosity with biosimilar AVASTIN® (228 mg/mL mAb, agent […], 25° C.) amounted to 59.6 ± 0.5 cP.
With `NCCCC[C@H](N)C(=O)O.O=S(=O)(O)c1ccccc1` [BSAL, benzenesulfonic acid lysine], the Viscosity in the data set on biosimilar AVASTIN® (230 ± 5 mg/mL mAb, pH 7.0, […], 30° C.) is listed as 175 ± 7 cP.
As to Lactobionic acid-tris, the Viscosity with biosimilar RITUXAN® (211 mg/mL mAb, […] agent) turned out to be 130 ± 1 cP; in the data set on biosimilar AVASTIN® (219 mg/mL mAb, […] agent, pH 7.0, 25° C., microfluidic), 109 ± 5 cP.
